From publication doi:10.1101/2025.11.20.689494

The chains behind the UniProt entries cited, without tags or fusion partners.
UniProt Q7L523, whole entry, chain 1 of 2: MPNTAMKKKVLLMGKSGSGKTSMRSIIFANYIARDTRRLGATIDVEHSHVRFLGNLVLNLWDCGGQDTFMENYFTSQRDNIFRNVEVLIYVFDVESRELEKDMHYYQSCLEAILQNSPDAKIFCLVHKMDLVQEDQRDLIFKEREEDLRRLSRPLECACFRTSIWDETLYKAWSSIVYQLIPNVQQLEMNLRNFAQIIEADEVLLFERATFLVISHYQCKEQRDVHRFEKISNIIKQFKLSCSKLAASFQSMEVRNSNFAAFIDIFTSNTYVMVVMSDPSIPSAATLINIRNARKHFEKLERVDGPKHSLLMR
UniProt Q9HB90, whole entry, chain 2 of 2: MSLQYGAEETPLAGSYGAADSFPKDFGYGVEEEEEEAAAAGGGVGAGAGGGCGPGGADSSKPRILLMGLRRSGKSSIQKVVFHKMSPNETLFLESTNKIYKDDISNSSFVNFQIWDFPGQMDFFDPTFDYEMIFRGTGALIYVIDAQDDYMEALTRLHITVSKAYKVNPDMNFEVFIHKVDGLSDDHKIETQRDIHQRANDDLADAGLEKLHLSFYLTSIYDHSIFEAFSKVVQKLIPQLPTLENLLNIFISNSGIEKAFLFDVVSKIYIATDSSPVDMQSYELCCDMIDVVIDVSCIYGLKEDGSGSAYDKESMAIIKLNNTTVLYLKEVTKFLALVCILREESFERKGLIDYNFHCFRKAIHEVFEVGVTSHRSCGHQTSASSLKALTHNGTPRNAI

What follows are substances tested against RagA:RagC dimer (UniProt Q7L523) (assay: SPR; disulfide-bonded cyclic peptide designs tested on the RagA:RagC dimer; Kd and Rmax from sensorgrams; who was immobilised and the conditions are not told in what was shown (methods in Appendix E)).
Work on “Peptide 7 (BoltzGen disulfide-bonded cyclic peptide design against RagA:RagC)” yielded a Kd of 308 µM. “Peptide 8 (BoltzGen disulfide-bonded cyclic peptide design against RagA:RagC)” gave a Kd of 318 µM. “Peptide 11 (BoltzGen disulfide-bonded cyclic peptide design against RagA:RagC)” was tested, and the Kd was 447 µM. In the case of “Peptide 12 (BoltzGen disulfide-bonded cyclic peptide design against RagA:RagC)”, the Kd is reported as 1100 µM. For “Peptide 14 (BoltzGen disulfide-bonded cyclic peptide design against RagA:RagC)”, the Kd was 297 µM. In the case of “Peptide 16 (BoltzGen disulfide-bonded cyclic peptide design against RagA:RagC)”, the Kd is reported as 164 µM. In the case of “Peptide 18 (BoltzGen disulfide-bonded cyclic peptide design against RagA:RagC)”, the Kd is reported as 80 µM. “Peptide 22 (BoltzGen disulfide-bonded cyclic peptide design against RagA:RagC)” was tested, and the Kd was 274 µM.

These substances were tested against RagC GTPase (UniProt Q9HB90) (assay: SPR; linear peptide designs tested on RagC; Kd and Rmax from sensorgrams; who was immobilised and the conditions are not told in what was shown (methods in Appendix E)).
“Peptide 6 (BoltzGen linear peptide design against RagC)” gave a Kd of 60 µM. “Peptide 13 (BoltzGen linear peptide design against RagC)” was tested, and the Kd was 117 µM. Substance “Peptide 18 (BoltzGen linear peptide design against RagC)” has a Kd of 893 µM. With “Peptide 19 (BoltzGen linear peptide design against RagC)” the Kd was 268 µM. For “Peptide 20 (BoltzGen linear peptide design against RagC)”, the Kd was 3.5 µM. “Peptide 23 (BoltzGen linear peptide design against RagC)” gave a Kd of 268 µM. “Peptide 29 (BoltzGen linear peptide design against RagC)” showed a Kd of 373 µM.
